Measured values taken from patent US20250186563A1, “UNIT DOSE FORMULATION OF ANTIDOTES FOR FACTOR XA INHIBITORS AND METHODS OF USING THE SAME” (Alexion Pharmaceuticals, Inc., priority 2009, published 2025).

Sequences of proteins named here, by UniProt entry; tags and fusion partners are left off. Residues count along the entry.
UniProt P00742, 41-179 limits assumed: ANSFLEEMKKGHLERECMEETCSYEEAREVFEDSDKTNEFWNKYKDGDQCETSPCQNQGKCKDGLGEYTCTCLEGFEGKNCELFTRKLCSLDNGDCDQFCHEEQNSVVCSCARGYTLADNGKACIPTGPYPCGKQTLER
UniProt P00742, 235-488 limits assumed: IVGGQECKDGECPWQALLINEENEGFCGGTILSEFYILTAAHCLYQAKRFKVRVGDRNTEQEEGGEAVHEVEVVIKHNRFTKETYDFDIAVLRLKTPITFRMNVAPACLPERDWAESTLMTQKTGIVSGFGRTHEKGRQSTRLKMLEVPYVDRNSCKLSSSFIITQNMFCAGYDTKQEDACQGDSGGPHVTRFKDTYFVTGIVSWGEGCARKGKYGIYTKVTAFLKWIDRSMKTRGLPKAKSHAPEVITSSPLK

Tests used:
[1] = target: T1, fXa (Homo sapiens, UniProt P00742); experiment: fXa chromogenic activity assay: inhibition by fXa inhibitors and reversal by antidote; type: biochemical; conditions: for % Correction of inhibition by fXa inhibitors: fXa 3.0 nM
T1 construct: purified active human plasma derived fXa (3 nM); from tissue; host or cells: human plasma

[2] = test system: fXa (bovine fXa); experiment: Plasma anti-fXa activity assay (modified Coamatic LMWH kit); type: in vivo
Protocol: The effect of r-Antidote on enoxaparin-induced anticoagulation was measured by plasma anti-fXa activity assay. The anti-fXa activity assay is based on a modified LMWH assay kit (Coamatic LMWH) which expresses the anticoagulant activity of LMWH in terms of anti-fXa units. The anti-fXa units assay measures residual fXa (bovine fXa) activity in plasma using a fXa chromogenic substrate (S2732). Known concentrations of enoxaparin standard (U/ml) were used to construct a standard curve for measurement of anti-fXa units (U/ml) in unknown samples.
The r-Antidote was administered as a bolus at a dose of 1 mg, 2 mg, or 4 mg.
In the same model, fondaparinux was administrated at a dose of 1 mg/kg (IV bolus) followed by r-Antidote (4 mg bolus starting at 5 minutes+4 mg/hr infusion for the duration of the experiment).
The anti-fXa activity for fondaparinux was expressed as g/ml by using a known concentration of fondaparinux as a standard. When measured using enoxaparin as the standard, 1 g/ml fondaparinux was equivalent to 0.66 U/ml enoxaparin in rat plasma, or 0.80 U/ml enoxaparin in human plasma.

[3] = set-up: species or system Sprague-Dawley rats; conditions: rat, in vivo
Protocol: One mg of antidote was administered as a short intravenous infusion over five minutes to four Sprague-Dawley rats. Serial plasma samples were collected and analyzed for antidote concentration using an enzyme linked immunosorption assay (ELISA, Enzyme Research Laboratory, Cat #: FX-EIA). Plasma concentration-time profiles of the antidote was described by a two compartment model. […] If immediate and near complete reversal of anticoagulation has to be achieved in a patient, based on rat experiments (Examples 18, 19, 20 and 22) the ratio of r-Antidote concentration to circulating fXa inhibitor concentration is expected to be targeted at around 2. Thus, to immediately maintain antidote plasma concentration above that of a fXa inhibitor, the distribution half-life is expected to have a much bigger impact than the terminal half-life on the human dose selection during an overdose treatment.

[4] = test system: aPTT of pooled human plasma; experiment: aPTT human plasma clotting assay (MLA Electra 800 coagulation timer); type: biochemical
[5] = test system: betrixaban anticoagulation (whole blood INR); experiment: In vivo mouse model, PK-PD of betrixaban with antidote; set-up: species or system C57Bl/6 mice
Protocol: 15 mg/kg was used for antidote treated group. A single intravenous (IV) injection of antidote (300 ug/200 μL) or vehicle (normal saline, 200 μL) was administered 5 minutes prior to the 1.5 hr. time point.
Blood samples (0.5 mL) were obtained in 50 μL trisodium citrate. Whole blood INR was measured using Hemochron Jr. cartridges (International Technidyne Corporation) per the manufacture's instructions.
15 mg/kg was used for antidote (300 μg/200 μL) treated group.
Vehicle (control_1) or r-Antidote (1 injection) was administered 5 min prior to the 1 hr. time point. […] Mouse blood samples were taken at 2 hr. for vehicle (control_2) and r-Antidote (2 injections) treated mice.

[6] = test system: PT of rhesus monkey plasma; experiment: Prothrombin time in rhesus monkey plasma; type: biochemical, rhesus monkeys
Protocol: Prothrombin times were measured as in Example 12.

[7] = 300 nM Betrixaban + 570 nM r-Antidote
[8] = 300 nM Betrixaban + 760 nM r-Antidote
[9] = 300 nM Betrixaban + […] r-Antidote
[10] = 400 nM Betrixaban + 380 nM rAntidote
[11] = 400 nM Betrixaban + 570 nM rAntidote
[12] = 400 nM Betrixaban + 760 nM rAntidote
[13] = 400 nM Betrixaban + 1520 nM rAntidote
[14] = 400 nM Betrixaban + […] rAntidote
[15] = r-Antidote treated mice, […] after 15 mg/kg betrixaban PO

B1: r-Antidote: fXa derivative lacking the 6-39 amino acid residues of SEQ ID NO. 3, expressed in CHO cells, after removal of the linker (SEQ ID NO. 13) (protein)
chain: ANSFLFWNKYKDGDQCETSPCQNQGKCKDGLGEYTCTCLEGFEGKNCELFTRKLCSLDNGDCDQFCHEEQNSVVCSCARGYTLADNGKACIPTGPYPCGKQTLERIVGGQECKDGECPWQALLINEENEGFCGGTILSEFYILTAAHCLYQAKRFKVRVGDRNTEQEEGGEAVHEVEVVIKHNRFTKETYDFDIAVLRLKTPITFRMNVAPACLPERDWAESTLMTQKTGIVSGFGRTHEKGRQSTRLKMLEVPYVDRNSCKLSSSFIITQNMFCAGYDTKQEDACQGDAGGPHVTRFKDTYFVTGIVSWGEGCARKGKYGIYTKVTAFLKWIDRSMKTRGLPKAKSHAPEVITSSPLK
reversal of inhibition ([1]; 186 nM r-Antidote, apixaban 7.5 nM): > 70%
correction of inhibition ([1]; 186 nM r-Antidote, betrixaban 7.5 nM): > 95%
correction of inhibition ([1]; 186 nM r-Antidote, rivaroxaban 7.5 nM): > 95%
% Correction of inhibition by fXa inhibitors ([1]; r-Antidote 9.3 nM, Apixaban 7.5 nM): 13.3%
% Correction of inhibition by fXa inhibitors ([1]; r-Antidote 9.3 nM, Betrixaban 7.5 nM): 21.5%
% Correction of inhibition by fXa inhibitors ([1]; r-Antidote 9.3 nM, Rivaroxaban 7.5 nM): 23.2%
% Correction of inhibition by fXa inhibitors ([1]; r-Antidote 18.6 nM, Apixaban 7.5 nM): 33.5%
% Correction of inhibition by fXa inhibitors ([1]; r-Antidote 18.6 nM, Betrixaban 7.5 nM): 52.7%
% Correction of inhibition by fXa inhibitors ([1]; r-Antidote 18.6 nM, Rivaroxaban 7.5 nM): 54.2%
% Correction of inhibition by fXa inhibitors ([1]; r-Antidote 37.2 nM, Apixaban 7.5 nM): 49.9%
% Correction of inhibition by fXa inhibitors ([1]; r-Antidote 37.2 nM, Betrixaban 7.5 nM): 75.5%
% Correction of inhibition by fXa inhibitors ([1]; r-Antidote 37.2 nM, Rivaroxaban 7.5 nM): 72.6%
% Correction of inhibition by fXa inhibitors ([1]; r-Antidote 55.8 nM, Apixaban 7.5 nM): 59.2%
% Correction of inhibition by fXa inhibitors ([1]; r-Antidote 55.8 nM, Betrixaban 7.5 nM): 86.5%
% Correction of inhibition by fXa inhibitors ([1]; r-Antidote 55.8 nM, Rivaroxaban 7.5 nM): 79.9%
% Correction of inhibition by fXa inhibitors ([1]; r-Antidote 93.1 nM, Apixaban 7.5 nM): 64.4%
% Correction of inhibition by fXa inhibitors ([1]; r-Antidote 93.1 nM, Betrixaban 7.5 nM): 94.9%
% Correction of inhibition by fXa inhibitors ([1]; r-Antidote 93.1 nM, Rivaroxaban 7.5 nM): 89.1%
% Correction of inhibition by fXa inhibitors ([1]; r-Antidote 148.9 nM, Apixaban 7.5 nM): 74.8%
% Correction of inhibition by fXa inhibitors ([1]; r-Antidote 148.9 nM, Betrixaban 7.5 nM): 99.3%
% Correction of inhibition by fXa inhibitors ([1]; r-Antidote 148.9 nM, Rivaroxaban 7.5 nM): 96.7%
% Correction of inhibition by fXa inhibitors ([1]; r-Antidote 186.1 nM, Apixaban 7.5 nM): 72.6%
% Correction of inhibition by fXa inhibitors ([1]; r-Antidote 186.1 nM, Betrixaban 7.5 nM): 99.5%
% Correction of inhibition by fXa inhibitors ([1]; r-Antidote 186.1 nM, Rivaroxaban 7.5 nM): 94.8%
reversal of increase in anti-fXa activity due to fondaparinux ([2]; fondaparinux 1 mg/kg IV bolus, r-Antidote 4 mg bolus + 4 mg/hr infusion): rapidly and substantially reversed
reversal of enoxaparin-induced anticoagulation (plasma anti-fXa units) ([2]; r-Antidote bolus 1 mg, 2 mg or 4 mg): reversed the enoxaparin-induced anticoagulation in a dose-responsive manner
Volume of distribution, Vc [3]: 13 mL
Systemic clearance ([3]; iv): 0.099 L/h/kg
distribution half-life ([3]; iv): 0.317 h
terminal half-life ([3]; iv): 10 h
volume of distribution ([3]; iv): 0.27 L/kg
% Correction of anticoagulation [4, 7]: 88%
Fold Change [4, 7]: 1.09
aPTT [4, 7]: 38.3 s
% Correction of anticoagulation [4, 8]: 88%
Fold Change [4, 8]: 1.09
aPTT [4, 8]: 38.2 s
% Correction of anticoagulation [4, 9]: 90%
Fold Change [4, 9]: 1.08
aPTT [4, 9]: 38.1 s
% Correction of anticoagulation [4, 10]: 61%
Fold Change [4, 10]: 1.34
aPTT [4, 10]: 47.1 s
% Correction of anticoagulation [4, 11]: 85%
Fold Change [4, 11]: 1.13
aPTT [4, 11]: 39.9 s
% Correction of anticoagulation [4, 12]: 85%
Fold Change [4, 12]: 1.13
aPTT [4, 12]: 39.9 s
% Correction of anticoagulation [4, 13]: 86%
Fold Change [4, 13]: 1.12
aPTT [4, 13]: 39.4 s
% Correction of anticoagulation [4, 14]: 92%
Fold Change [4, 14]: 1.07
aPTT [4, 14]: 37.8 s
Fold Change ([4]; 1520 nM rAntidote alone): 1.10
aPTT ([4]; 1520 nM rAntidote alone): 38.8 s
reduction of functional betrixaban / correction of whole blood INR ([5]; mice, betrixaban 15 mg/kg PO, single IV injection of antidote (300 ug)): > 50%
% Correction, Mean [5, 15]: 77.3%
Expected INR, Mean [5, 15]: 3.0
Measured INR, Mean ([5]; r-Antidote treated mice, […] after 15 mg/kg betrixaban PO, 5 min after antidote injection): 1.3
PT ([6]; 250 nM rivaroxaban + 244 nM r-Antidote): 25 ± 7 s
PT ([6]; 250 nM rivaroxaban + 488 nM r-Antidote): 19.9 ± 1.9 s
PT ([6]; r-Antidote alone in baseline plasma): 17.7 s
